# This is a selection; strong and weak results do not stand in their true shares. The source made the active and inactive calls. Cut-off read from the data, not from the text of the source: active = TR-FRET ratio above about 2300; inactive = the rest.
# Test: TR-FRET detection interference compounds, primary screen, artefact control for PPARgamma SRC-1 recruitment agonists, biochemical, TR-FRET emission ratio (AID 1051)
# Conditions: TR-FRET detection artefact counter-screen, at 8 µM, stronger effect = higher value
row,Structure (SMILES),TR-FRET ratio
1,COc1ccc(C(=O)NCC2(N3CCCCC3)CCCCC2)c(OC)c1OC,inactive: 1940
2,CCOC(=O)N1CCC(Nc2ccc(OC)cc2)CC1,inactive: 1740
3,O=C(NCC1(N2CCCCC2)CCCCC1)c1cccc([N+](=O)[O-])c1,inactive: 2030
4,COc1ccc(NC2CCN(C(=O)OC(C)(C)C)CC2)cc1,inactive: 1800
5,CN1CCN(CCOC(=O)C(O)(c2ccccc2)c2ccccc2)CC1,inactive: 1710
6,COc1ccc(CN(CCCl)CCCl)cc1Cl,inactive: 1800
7,CN(C)c1cccc(C(=O)NCC2(N3CCCCC3)CCCCC2)c1,inactive: 1630
8,CC(C)c1ccc(NC2CCN(C(=O)OC(C)(C)C)CC2)cc1,inactive: 1860
9,COc1ccc(C(=O)NCC2(N3CCOCC3)CCCCC2)cc1OC,inactive: 1810
10,O=C(OC1CN2CCC1CC2)C1c2ccccc2C=Cc2ccccc21 (stereo not given),inactive: 1780
11,N#Cc1ccc(C(=O)NCC2(N3CCCCC3)CCCCC2)cc1,inactive: 1500
12,CCN1CCC(Nc2cccc(F)c2)CC1,inactive: 1920
13,CN(C)c1ccc(C(=O)NCC2(N3CCCCC3)CCCCC2)cc1,inactive: 1730
14,CC(C)(C)OC(=O)N1CCC(Nc2ccccc2)CC1,inactive: 1990
15,COc1cc(OC)cc(C(=O)NCC2(N3CCOCC3)CCCCC2)c1,inactive: 1940
